By UniProt entry, the sequences of proteins in these tests, tags left out. Where a name states a change or a piece, a line headed by the entry shows the natural chain unless it says otherwise.
UniProt Q9Y233: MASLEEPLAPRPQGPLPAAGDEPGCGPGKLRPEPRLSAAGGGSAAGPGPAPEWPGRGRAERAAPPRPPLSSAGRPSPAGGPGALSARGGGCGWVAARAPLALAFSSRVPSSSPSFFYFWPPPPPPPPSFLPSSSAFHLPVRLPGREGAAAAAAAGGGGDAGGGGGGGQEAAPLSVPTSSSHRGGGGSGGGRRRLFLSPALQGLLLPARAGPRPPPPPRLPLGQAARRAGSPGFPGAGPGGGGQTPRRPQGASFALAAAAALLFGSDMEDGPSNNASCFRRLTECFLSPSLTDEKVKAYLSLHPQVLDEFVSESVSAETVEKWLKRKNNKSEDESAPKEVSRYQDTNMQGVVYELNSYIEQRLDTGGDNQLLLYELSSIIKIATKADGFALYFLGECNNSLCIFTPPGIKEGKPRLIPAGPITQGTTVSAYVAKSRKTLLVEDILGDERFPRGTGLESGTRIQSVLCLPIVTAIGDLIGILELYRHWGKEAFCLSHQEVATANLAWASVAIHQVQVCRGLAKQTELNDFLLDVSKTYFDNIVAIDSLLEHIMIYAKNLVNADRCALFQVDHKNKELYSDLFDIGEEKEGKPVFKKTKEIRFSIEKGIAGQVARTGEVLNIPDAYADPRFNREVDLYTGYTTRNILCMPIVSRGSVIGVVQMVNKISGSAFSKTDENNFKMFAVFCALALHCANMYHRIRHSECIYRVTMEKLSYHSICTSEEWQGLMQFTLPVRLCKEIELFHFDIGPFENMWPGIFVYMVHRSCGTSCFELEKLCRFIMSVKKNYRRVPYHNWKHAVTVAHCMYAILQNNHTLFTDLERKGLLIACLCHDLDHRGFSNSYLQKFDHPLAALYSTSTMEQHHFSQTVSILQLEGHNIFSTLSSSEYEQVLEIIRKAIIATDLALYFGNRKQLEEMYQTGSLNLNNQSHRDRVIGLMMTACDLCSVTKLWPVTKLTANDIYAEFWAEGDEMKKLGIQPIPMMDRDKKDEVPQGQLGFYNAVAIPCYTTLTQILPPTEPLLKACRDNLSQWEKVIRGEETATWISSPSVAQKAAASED

In ChEMBL document CHEMBL1641409, “Synthesis and SAR study of new phenylimidazole-pyrazolo[1,5-c]quinazolines as potent phosphodiesterase 10A inhibitors” (Bioorg Med Chem, 2011):

Target: cAMP and cAMP-inhibited cGMP 3',5'-cyclic phosphodiesterase 10A (Homo sapiens, UniProt Q9Y233)
Experiment: Inhibition of human PDE10A expressed in Sf9 cells using [3H]cAMP by scintillation proximity assay

For COc1ccc(Cc2nccc3cc(OC)c(OC)cc23)cc1OC [PAPAVERINE], the IC50 was 17 nM.
